Literature values in patent US6482800B1, “Methods to stimulate angiogenesis” (The University of Southern California, priority 1998, dated 2002).

Target: T1, AT2 receptor (Homo sapiens, UniProt P50052)
T1 sequence (P50052 1-363): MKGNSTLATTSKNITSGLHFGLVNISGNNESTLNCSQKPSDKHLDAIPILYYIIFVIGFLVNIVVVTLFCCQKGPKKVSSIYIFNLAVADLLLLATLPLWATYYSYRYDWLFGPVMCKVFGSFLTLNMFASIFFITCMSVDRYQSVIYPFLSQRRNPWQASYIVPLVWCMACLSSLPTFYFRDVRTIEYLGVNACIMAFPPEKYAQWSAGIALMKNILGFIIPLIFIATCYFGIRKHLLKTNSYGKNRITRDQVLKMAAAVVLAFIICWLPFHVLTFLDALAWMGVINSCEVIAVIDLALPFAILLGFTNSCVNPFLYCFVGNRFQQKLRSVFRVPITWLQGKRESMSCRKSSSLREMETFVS
Details: experimental models of the cited literature; cited from earlier work

Which Binding characteristics does the source give for “Asp-Arg-Val-Tyr-Ile-Xaa-Pro-Phe [(p-NH2-Phe) 6-AII]” here?
Its Binding characteristics is “comparable to AT2 antagonists”.
